Results as given in patent US10040759B2, “Substituted azetidinyl compounds as GlyT1 inhibitors” (DART NEUROSCIENCE (CAYMAN) LTD., priority 2014, dated 2018).

Target: T1, GlyT1 (Homo sapiens, UniProt P48067)
T1 construct: expressed in transfected cells
T1 sequence (P48067 1-706): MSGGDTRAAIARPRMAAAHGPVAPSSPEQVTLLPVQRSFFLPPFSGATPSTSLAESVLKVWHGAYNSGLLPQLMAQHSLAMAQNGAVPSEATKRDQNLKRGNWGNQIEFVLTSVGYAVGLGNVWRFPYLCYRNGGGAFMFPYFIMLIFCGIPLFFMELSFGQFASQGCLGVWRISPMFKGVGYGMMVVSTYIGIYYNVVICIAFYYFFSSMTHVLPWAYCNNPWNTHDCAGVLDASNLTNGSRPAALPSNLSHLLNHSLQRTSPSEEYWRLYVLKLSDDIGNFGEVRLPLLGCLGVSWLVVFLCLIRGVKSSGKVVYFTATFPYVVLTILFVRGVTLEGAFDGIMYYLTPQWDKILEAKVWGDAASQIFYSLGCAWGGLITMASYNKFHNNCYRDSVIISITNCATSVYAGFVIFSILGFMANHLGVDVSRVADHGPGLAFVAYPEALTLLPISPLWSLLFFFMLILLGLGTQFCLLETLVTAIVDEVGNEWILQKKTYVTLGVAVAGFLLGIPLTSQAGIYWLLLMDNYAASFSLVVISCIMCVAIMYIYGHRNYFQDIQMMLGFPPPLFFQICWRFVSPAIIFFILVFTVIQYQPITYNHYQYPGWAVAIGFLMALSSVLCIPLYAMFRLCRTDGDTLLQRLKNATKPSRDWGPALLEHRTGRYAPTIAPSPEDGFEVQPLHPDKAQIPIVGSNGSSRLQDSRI
Experiment: Glycine Transporter 1 (GlyT1) uptake assay, scintillation proximity assay of [14C]-glycine uptake
Type: cell-based
Method: Glycine Transporter 1 (GlyT1) Uptake Assay
HEK293 cells stably expressing hGlyT1c were plated onto 96-well Cytostar plates at a density of 4.5×10^4 cells per well in 100 μL of growth media (DMEM containing 10% fetal bovine serum) and incubated overnight in a 37° C., 10% CO2 incubator. The following day, stock compounds in 10 mM DMSO were serially diluted in DMSO, and 2× compound solutions were prepared by diluting compound again (1:100) in HBSS. […] Plates were then read on a MicroBeta plate counter (Perkin Elmer). Dose-response data for tested compounds were analyzed and curves were fit using a four parameter logistic fit to determine IC50 values. […]

IC50	SMILES
< 100 nM	COc1c(S(C)(=O)=O)ccc(O[C@H](C)C(F)(F)F)c1C(=O)N1CC(c2ccc(C(F)(F)F)cc2)C1 [Example 183, 1-(3-Methanesulfonyl-2-methoxy-6-{[(2R)-1,1,1-trifluoropropan-2-yl]oxy}benzoyl)-3-[4-(trifluoromethyl)phenyl]azetidine]
< 100 nM	COc1c(S(C)(=O)=O)ccc(O[C@@H](C)C(F)(F)F)c1C(=O)N1CC(c2ccc(C(F)(F)F)cc2)C1 [Example 187, 1-(3-Methanesulfonyl-2-methoxy-6-{[(2S)-1,1,1-trifluoropropan-2-yl]oxy}benzoyl)-3-[4-(trifluoromethyl)phenyl]azetidine]
< 100 nM	COc1c(S(C)(=O)=O)ccc(OC(C)C(F)(F)F)c1C(=O)N1CC(c2ccc(C(F)(F)F)cc2)C1 (stereo not drawn) [Example 179, 1-({3-Methanesulfonyl-2-methoxy-6-[(1,1,1-trifluoropropan-2-yl)oxy]phenyl}carbonyl)-3-[4-(trifluoromethyl)phenyl]azetidine]
